Patent publication US7880024B2, “Ionic liquids miscible with various polar/non-polar solvents and method of preparing the same” (Samsung Engineering Co., Ltd., priority 2008, dated 2011)

Details: molar ratio 1:1, 0.003 mol each; 50° C. for 1 day, then cooled to room temperature

Substance | Solubility (miscibility) in 1-hexane | Solubility (miscibility) in 2-methyl butane | Solubility (miscibility) in Hexane | Solubility (miscibility) in Methyl cyclo hexane | Solubility (miscibility) in Water | Solubility (miscibility) in cyclohexane | Solubility (miscibility) in heptane | Solubility (miscibility) in pentane | Solubility (miscibility) in toluene
Dimethyl Butyl Hexyl Ammonium Undecylenate [Example 1] | Y | Y | Y | Y | Y | Y | Y | Y | Y
hexyltributyl ammonium oleate [Example 9] | – | – | – | – | Y | – | – | – | Y
tributylhexyl ammonium undecylenate [Example 7] | Y | Y | Y | Y | Y | Y | Y | Y | Y
tributyloctyl ammonium undecylenate [Example 8] | Y | Y | Y | Y | Y | Y | Y | Y | Y
tributylpropyl ammonium undecylenate [Example 6] | Y | – | – | – | Y | Y | – | – | Y
triethyloctyl ammonium undecylenate [Example 2] | Y | Y | – | Y | Y | Y | – | Y | Y
tripropylbutyl ammonium undecylenate [Example 3] | – | – | – | – | Y | Y | N | – | Y
tripropylhexyl ammonium undecylenate [Example 4] | Y | Y | Y | Y | Y | Y | Y | Y | Y
tripropyloctyl ammonium undecylenate [Example 5] | Y | Y | Y | Y | Y | Y | Y | Y | Y
